Experimental data reported in PubChem BioAssay AID624169 (The Scripps Research Institute Molecular Screening Center, 2012).
The list shows a part of the results, in another mix than the full data. The source made the active and inactive calls.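 How the source made its calls: active means activation above a run cutoff, the mean activation of all tested compounds plus 3 SD (cut at about 14% in these data); inactive means the rest.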

Amino acid sequences for entries named in this document (tags omitted).
UniProt P35363, whole entry, looked up: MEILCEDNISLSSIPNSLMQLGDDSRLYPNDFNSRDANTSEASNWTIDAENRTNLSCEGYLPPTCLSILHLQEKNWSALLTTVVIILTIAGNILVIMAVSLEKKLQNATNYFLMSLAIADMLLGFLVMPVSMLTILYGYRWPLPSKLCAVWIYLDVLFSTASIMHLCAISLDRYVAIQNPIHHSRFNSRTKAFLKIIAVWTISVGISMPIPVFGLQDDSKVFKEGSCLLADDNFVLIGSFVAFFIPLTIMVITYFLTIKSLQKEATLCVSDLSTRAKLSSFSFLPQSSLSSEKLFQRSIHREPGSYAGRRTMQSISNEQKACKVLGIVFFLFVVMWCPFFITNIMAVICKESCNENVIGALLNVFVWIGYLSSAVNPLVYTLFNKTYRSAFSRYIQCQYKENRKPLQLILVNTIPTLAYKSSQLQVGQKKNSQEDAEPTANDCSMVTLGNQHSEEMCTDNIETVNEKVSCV

Target: 5-hydroxytryptamine receptor 2A (Mus musculus) (UniProt P35363)
Assay: activation of mouse 5-HT2A receptor – cell-based, luminescence, primary screen (AID 624169);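 further: 0% = plate median of compound wells and 100% = 30 µM serotonin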
Conditions: CHO-K1 mHTR2A beta-arrestin complementation, at 7.6 µM, hits give high values, percent of 30 µM serotonin response

Structure (SMILES) | activation
CCN(/C(=N/P(=O)(N1CCOCC1)N1CCOCC1)N1CCOCC1)c1ccc(OC)cc1 | inactive: -0.34%
CN(C)C(=O)OCCc1n(C)cc[n+]1C | inactive: -2.59%
CC(C)=N/N=C(\N)N[N+](=O)[O-] | inactive: 9.58%
CC(C)c1nc(Nc2ccccc2)n(P(=O)(N(C)C)N(C)C)n1 | inactive: 4.48%
c1cc(-c2nn[nH]n2)ccc1-c1nn[nH]n1 | inactive: -2%
CC1CCN(C(=O)Oc2c(Cl)cc(Cl)c3cccnc23)CC1 | inactive: 3.11%
O=P1(N(CCCl)CCCl)OCCCS1 (stereo not drawn) | inactive: 0.31%
O=C(Nc1cc([As](=O)(O)O)ccc1O)c1ccccc1 | inactive: 10.6%
CC(C)(C)C(=O)NC(Sc1ccncn1)C(Cl)(Cl)Cl (stereo not drawn) | inactive: -2.44%
O=[N+]([O-])c1ncn(CCn2ncnc2[N+](=O)[O-])n1 | inactive: 3.61%
O=[N+]([O-])c1cccc(NC2=NCC(CBr)S2)c1 (stereo not drawn) | inactive: -0.19%
COC(=O)C1(C)COP(=O)(Nc2ccccc2)OC1 (stereo not drawn) | inactive: 2.69%
O=C(O)CNc1ccc([As](=O)(O)O)cc1 | inactive: 8.75%
CCCC1OP(N)(=O)OCC1CC (stereo not drawn) | inactive: 0.25%
O=C(O)c1ccccc1[As](=O)(O)O | inactive: 1.27%
CC(=O)Nc1ccc([As](=O)(O)O)cc1 | inactive: 0.26%
CN(C)P(=O)(N(C)C)n1c(Nc2ccccc2)nnc1-c1ccccc1 | inactive: -5.59%
O=P(Nc1nc2ccc(Cl)cc2s1)(c1ccccc1)c1ccccc1 | inactive: -2.27%
CN(C(=O)Cc1ccc(Cl)c(Cl)c1)[C@H]1CCCC[C@@H]1N1CCCC1 | inactive: -6.54%
Cc1ccc(NP(=O)(Oc2ccccc2F)Oc2ccccc2F)nc1 | inactive: 3.47%
CCOP(=O)(Nc1ccccc1)OCC | inactive: 13.4%
Cc1cc(SC(NC(=O)c2ccc(F)cc2)C(Cl)(Cl)Cl)ncn1 (stereo not drawn) | inactive: 0.89%
CCN(N=Nc1nonc1N)c1nonc1N | inactive: 3.28%
Nc1cccc2ccc([As](=O)(O)O)cc12 | inactive: 5.34%
NC(=O)c1cc([N+](=O)[O-])cc([N+](=O)[O-])c1N | inactive: 3.76%
Cc1ccc(N/C(=N/P(=O)(N2CCOCC2)N2CCOCC2)N2CCOCC2)cc1 | inactive: 0.48%

Structure (SMILES) | activation
CN(C(=O)Cc1ccc(Cl)c(Cl)c1)[C@H]1CCCC[C@H]1N1CCCC1 | inactive: -3.43%
Cc1ccc(OP(=O)(Nc2nccs2)Oc2ccc(C)cc2)cc1 | inactive: -1.35%
COc1ccccc1OP(=O)(Nc1ccc(C)cn1)Oc1ccccc1OC | inactive: -0.2%
Clc1ccc(Cl)c(NC2=NCC(CBr)S2)c1 (stereo not drawn) | inactive: 0.53%
CN1CCCC(OC(=O)C(c2ccccc2)c2ccccc2)C1 (stereo not drawn) | inactive: -0.73%
CC(C)CC(=O)NC(Sc1ccc(Cl)cc1)C(Cl)(Cl)Cl (stereo not drawn) | inactive: 0.92%
Nc1cc(N)c2nonc2c1[N+](=O)[O-] | inactive: 1.24%
O=C(NC(Sc1ccncn1)C(Cl)(Cl)Cl)c1ccccc1 (stereo not drawn) | inactive: 0.06%
Oc1ccccc1CNc1ccccn1 | inactive: -1.44%
O=[N+]([O-])C1C(O)C(O)C([N+](=O)[O-])C(O)C1O (stereo not drawn) | inactive: -2.39%
CCOc1ccc(C2=NCC(CBr)S2)cc1 (stereo not drawn) | inactive: 3.78%
O=P1(Nc2nc3ccc(Cl)cc3s2)COc2ccccc2O1 (stereo not drawn) | inactive: 2.57%
CCc1cc(O)c([N+](=O)[O-])c(C)c1[N+](=O)[O-] | inactive: 11.2%
CC(C)(C)C(=O)NC(Sc1ccccc1)C(Cl)(Cl)Cl (stereo not drawn) | inactive: -4.68%
COC(=O)C1(C)COP(=O)(NCc2ccccc2)OC1 (stereo not drawn) | inactive: 3.63%
N#C/C(=C\c1ccc(N(CCBr)CCBr)cc1)C(N)=O | inactive: -2.67%
CC(=O)c1ccc(N2CC2c2ccncc2)cc1 (stereo not drawn) | inactive: -0.1%
C[C@@H]1C=CCP(=O)(Oc2ccccc2)O1 (stereo partly drawn) | inactive: -1.4%
C[C@H]1OP(=O)(Oc2ccccc2)C[C@@H]2O[C@@H]21 (stereo partly drawn) | inactive: -0.36%
Cc1ccccc1CN(C)C(=O)COC(=O)C(O)(c1ccccc1)c1ccccc1 | inactive: 4.5%
CC(=O)Nc1ccc(Oc2c([N+](=O)[O-])cc([N+](=O)[O-])cc2[N+](=O)[O-])cc1 | inactive: -1.68%
CC(=O)Nc1ccc([As](=O)(O)O)c(O)c1 | inactive: -4.01%
O=C(NC1CCS(=O)(=O)C1)NP(=S)(Oc1ccccc1)Oc1ccccc1 (stereo not drawn) | inactive: 3.66%
CCNC(=S)/N=C(\N)N[N+](=O)[O-] | inactive: 1.25%
Cc1ccc(NP(=O)(Oc2cccc(C)c2)Oc2cccc(C)c2)nc1 | inactive: 0.93%
c1ccc(-c2nn[nH]n2)c(-c2nn[nH]n2)c1 | inactive: 0.5%

Structure (SMILES) | activation
O=P1(N(CCCl)CCCl)OCCC2CCCCN21 (stereo not drawn) | inactive: -0.91%
CC(=O)NC(SC(=S)N(CC(C)C)CC(C)C)C(Cl)(Cl)Cl (stereo not drawn) | inactive: 1.59%
Cc1ccc(OP(=O)(Nc2ccccn2)Oc2ccc(C)cc2)cc1 | inactive: -7.28%
COC(=O)c1cc2c(s1)N=C(c1ccccc1)N(C)P2(=O)N1CCOCC1 (stereo not drawn) | inactive: -1.43%
CCC(=O)N1C2C3N(C(=O)CC)C1C1N(C(=O)CC)C(C(N1C(=O)CC)N3C(=O)CC)N2C(=O)CC | inactive: -0.42%
O=C(OC1CN2CCC1CC2)c1ccccc1 (stereo not drawn) | inactive: -9.38%
CN(C)C(=O)Oc1noc2ccccc12 | inactive: 4.3%
O=c1c2cc([N+](=O)[O-])ccc2[nH]c2c([N+](=O)[O-])cc([N+](=O)[O-])cc12 | inactive: -6.5%
Cc1ccccc1OP(=O)(Nc1ccccn1)Oc1ccccc1C | inactive: 5.87%
CC(NC(=O)COC(=O)C(O)(c1ccccc1)c1ccccc1)c1ccccc1 (stereo not drawn) | inactive: 3.79%
Nc1ccc(CCCCOc2ccccc2)cc1 | inactive: -5.65%
COc1ccc(N)c([N+](=O)[O-])c1[N+](=O)[O-] | active: 15%
CN(C)C1(CNC(=O)c2ccc(Cl)c(S(N)(=O)=O)c2)CCCCC1 | inactive: 5.69%
O=P(Nc1ccccn1)(c1ccc(Br)cc1)c1ccc(Br)cc1 | inactive: -0.4%
C[C@H]1OP(=O)(Oc2ccccc2)[C@H](O)[C@H](O)[C@H]1N=[N+]=[N-] (stereo partly drawn) | inactive: -4.73%
O=P(Nc1nc2ccccc2s1)(c1ccccc1)c1ccccc1 | inactive: -1.5%
CC(=O)NC(SC(=S)N(C)C)C(Cl)(Cl)Cl (stereo not drawn) | inactive: -4.54%
O=[N+]([O-])c1ncn(CCn2cnc([N+](=O)[O-])n2)n1 | inactive: 11.8%
O=[N+]([O-])c1ccc(O)c(/C=N/Nc2ccc([N+](=O)[O-])cc2[N+](=O)[O-])c1 | inactive: -0.96%
O=[As](O)(c1ccccc1)c1ccc(O)cc1 | inactive: 1.26%
Nc1ccc([As](=O)(O)c2ccc([N+](=O)[O-])cc2)cc1 | inactive: 1.94%
C(Cc1nn[nH]n1)Cc1nn[nH]n1 | inactive: -1.32%
O=C(OC1CN2CCC1CC2)c1cccc(Cl)c1 (stereo not drawn) | inactive: -4.97%
O=P(Nc1nccs1)(c1ccccc1)c1ccccc1 | inactive: -0.34%
CC(C)C(=O)NC(Sc1ccccc1)C(Cl)(Cl)Cl (stereo not drawn) | inactive: -1.89%
c1nnnn1CCn1cnnn1 | inactive: 2.3%
